From ChEMBL document CHEMBL4823324, “Discovery of BMS-986318, a Potent Nonbile Acid FXR Agonist for the Treatment of Nonalcoholic Steatohepatitis” (ACS Med Chem Lett, 2021)

Biological target: T1, Bile acid receptor (Mus musculus) (UniProt Q60641)
T1 sequence (whole entry): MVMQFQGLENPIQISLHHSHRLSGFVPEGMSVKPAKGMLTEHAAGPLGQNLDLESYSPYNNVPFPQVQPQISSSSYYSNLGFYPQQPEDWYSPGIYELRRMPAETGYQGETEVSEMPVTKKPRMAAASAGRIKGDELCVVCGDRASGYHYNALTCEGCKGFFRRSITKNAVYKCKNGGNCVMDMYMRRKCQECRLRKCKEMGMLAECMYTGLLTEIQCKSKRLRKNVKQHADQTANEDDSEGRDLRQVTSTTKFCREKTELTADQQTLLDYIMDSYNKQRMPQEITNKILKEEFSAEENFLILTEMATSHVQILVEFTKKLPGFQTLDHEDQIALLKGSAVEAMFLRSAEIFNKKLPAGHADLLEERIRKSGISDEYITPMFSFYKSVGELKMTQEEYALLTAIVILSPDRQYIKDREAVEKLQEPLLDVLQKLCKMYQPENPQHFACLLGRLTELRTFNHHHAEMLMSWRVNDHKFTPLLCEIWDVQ
Details: C57BL6/NTac, dose 3.0 mg/kg, time 6.0 hrs

inhibition | SMILES
99% | O=C(O)c1cc(F)c2nc(N3CCC4(C=C(c5c(-c6c(Cl)cccc6Cl)noc5C5CC5)C4)CC3)sc2c1
94% | O=C(O)c1cc(C(F)(F)F)c2cc(N3CCC4(C=C(c5c(-c6c(Cl)cncc6Cl)noc5C5CC5)C4)CC3)ccc2n1
96% | O=C(O)c1cc(F)c2nc(N3CCC(/C=C/c4c(-c5c(Cl)cccc5Cl)noc4C4CC4)CC3)sc2c1
